“And” between values parts separate entries of the source, which are not always exact repeats. Equal entries are not always repeated.
Assays:
proteasome subunit β2 = proteasome subunit β2 (Homo sapiens, UniProt Q99436); assay: In situ β2 proteasome activity assay (Ac-RLR-AMC) in RPMI 8226 cells; type: cell-based
Procedure: Cellular assays were performed on human multiple myeloma RPMI 8226 cells (Figure 4). First, relative inhibition of proteasome subunits β5 and β2 for all analogues and the natural product was measured at 30 nM compound concentration. Following incubation of the compounds in cell culture for 6 h, cells were lysed, and fluorogenic subunit-specific peptide substrates Suc-LLVY-AMC (β5) or Ac-RLR-AMC (β2) were incubated with the lysates; fluorescence readings provided relative proteasome activity levels in comparison with DMSO (Figure 4A). Next, cytotoxicity screening was performed at 30 and 100 nM concentrations for sufficient coverage of dynamic range (Figure 4B). […] Therefore, the improved cytotoxicity of phenyl cepafungin 50 likely results from a more pronounced loss of β5 function in RPMI 8226 cells. This drastic increase in proteasome inhibition may be due to π-stacking of the lipid tail phenyl ring with the β6 subunit residues Tyr106 and/or Tyr5. […]
(§1) Mammalian cells were maintained in RPMI-1640 media. […] Cells were lysed by needle sonication to obtain cell lysates and protein concentration was determined using the […]
fluorescence was read at A360ex/A460em. […]
in DMSO) or DMSO and cultured for 48 hours. Toxicity was determined using the WST-1 assay (Roche) according to the protocol of the manufacturer. […]

Amino acid sequences for entries named in this document (tags omitted). A change or cut given only in a name is not applied to a line headed by its entry. Residues count along the entry.
UniProt Q99436, 44-277 limits assumed: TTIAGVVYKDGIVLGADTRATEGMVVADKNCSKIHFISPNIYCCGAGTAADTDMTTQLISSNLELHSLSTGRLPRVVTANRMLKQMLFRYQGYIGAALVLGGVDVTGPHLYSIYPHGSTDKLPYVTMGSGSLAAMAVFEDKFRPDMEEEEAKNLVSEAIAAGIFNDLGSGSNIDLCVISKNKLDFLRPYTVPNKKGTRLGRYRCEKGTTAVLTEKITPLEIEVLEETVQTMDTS

proteasome subunit β5 = proteasome subunit β5 (Homo sapiens, UniProt P28074); assay: In situ β5 proteasome activity assay (Suc-LLVY-AMC) in RPMI 8226 cells; type: cell-based
Description: A preliminary series of analogues, including the natural product glidobactin A (2), were synthesized by largely the same route (Scheme 2B, Figure 2).[36] Desoxycepafungin (38) was synthesized from Boc-Lys(Boc)-OH by peptide couplings/macrocyclization to assess the role of the macrocycle hydroxylation in 1 toward proteasome inhibition. The saturated cepafungin analogue 39 was designed to address the possible role of rigidity in the tail fragment induced by the diene seen in many natural cepafungins and glidobactins. An analogue bearing unsaturation at its macrocyclic lysine was envisioned to provide a head-to-head comparison between the cepafungin and syringolin macrocyclic core. […] Proteasome subunit β5 IC50 values were determined in situ in RPMI 8226 cells. […]
Cellular assays were performed on human multiple myeloma RPMI 8226 cells (Figure 4). […] Following incubation of the compounds in cell culture for 6 h, cells were lysed, and fluorogenic subunit-specific peptide substrates Suc-LLVY-AMC (β5) or Ac-RLR-AMC (β2) were incubated with the lysates; fluorescence readings provided relative proteasome activity levels in comparison with DMSO (Figure 4A). […]
as §1

RPMI 8226 cells [1] = assay: Global proteomics analysis via LC-MS/MS of RPMI 8226 cells treated with BTZ or 50 (Table S5); type: cell-based, human
RPMI 8226 cells [2] = system: RPMI 8226 cells

C[C@H]1/C=C/C(=O)NCC[C@H](O)C[C@H](NC(=O)[C@@H](NC(=O)/C=C/C=C/CCCCCc2ccccc2)[C@@H](C)O)C(=O)N1
EC50 (U266): 18.9 nM and 20 nM
β2 subunit IC50 compared to 1 (proteasome subunit β2): roughly similar IC50
IC50 (proteasome subunit β2; read-out: Proteasome β2 activity IC50, 6 h, Ac-RLR-AMC, n = 3, Figure 4D): 36 nM
EC50 (JeKo-1): 9.8 nM
fold lower β5 IC50 than 1 (greater β5 inhibitory activity) (proteasome subunit β5): 7 fold
IC50 (proteasome subunit β5; read-out: Proteasome β5 activity IC50, 6 h, Suc-LLVY-AMC, n = 3, Figure 4D): 4 nM
EC50 (Mino): 5.6 nM
EC50 (H929): 0.8 nM
overlap of upregulated proteins commonly affected by BTZ and 50 (RPMI 8226 cells [1]; 17 common proteins): 89%
number of proteins with statistically significant increase in expression (RPMI 8226 cells [1]; RPMI 8226, 14 h, 2.5 nM BTZ or 3 nM 50 vs DMSO, out of 4080 quantified, FDR 5%, S0 0.1): 19 proteins
EC50 (RPMI 8226 cells [2]): 3.1 nM and 3 nM
EC50 (HBL2): 3.4 nM

Reference: PMC9951290, “Comprehensive Structure–Activity Relationship Studies of Cepafungin Enabled by Biocatalytic C–H Oxidations” (ACS Central Science, 2023)
